US20200400567A1, “FUSION POLYPEPTIDE” (PEKING UNIVERSITY, priority 2017, published 2020)

System: human DRD2 receptor
Test: GRAB-GDA3.0 fluorescence response in HEK293T cells, drug perfusion
Assay type: cell-based

## CCCN1CCC[C@@H]2Cc3n[nH]cc3C[C@H]21 [quinpirole]
  activation or block of GRAB-GDA3.0: activated
